Results as given in PubChem BioAssay (NCI).
This is a selection; strong and weak results do not stand in their true shares.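 Growth was measured after 48 h exposure to one concentration of compound in 96-well plates. Values under 10 count as active.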 The source made the active and inactive calls.

Legend:
Experiment in all cases: NCI-60 one-dose screen, 48 h (100 = growth as untreated, 0 = no growth, -100 = all killed)
Conditions in all cases: 10 µM unless noted
[1] = test system: NCI-H23 lung
[2] = test system: NCI-H226 lung
[3] = test system: NCI-H322M lung
[4] = test system: HOP-62 NSCLC
[5] = test system: NCI-H460 lung
[6] = test system: HOP-92 NSCLC
[7] = test system: NCI-H522 lung
[8] = test system: A549/ATCC NSCLC
[9] = test system: 786-0 renal
[10] = test system: COLO 205 colon
[11] = test system: DU-145 prostate
[12] = test system: K-562 leukemia
[13] = test system: MALME-3M melanoma
[14] = test system: MDA-MB-231 breast
[15] = test system: RXF 393 renal
[16] = test system: SF-268 CNS
[17] = test system: SF-295 CNS
[18] = test system: SF-539 CNS
[19] = test system: UACC-257 melanoma
[20] = test system: M14 melanoma

Measured: growth

S=P1(S)SC(Nc2ccccc2)CN1c1ccccc1 (centres undefined)
inactive: [1] 95.6% | [2] 102% | [3] 101% | [4] 92.4% | [5] 101% | [6] 104% | [7] 88.1% | [8] 112% | [9] 109% | [10] 107% | [11] 111% | [12] 93.4% | [13] 92.5% | [14] 98.3% | [15] 114% | [16] 96.3% | [17] 101% | [18] 101% | [19] 122% | [20] 102%

CCCCOP(=O)(OCCCC)N1CCCC1C(=O)O (centres undefined)
inactive: [1] 99.5% | [2] 95.3% | [3] 110% | [4] 80.5% | [5] 100% | [6] 88.9% | [7] 85.9% | [8] 85.3% | [9] 99.5% | [10] 96.5% | [11] 113% | [12] 103% | [13] 108% | [14] 102% | [15] 102% | [16] 100% | [17] 97% | [18] 99.2% | [19] 95% | [20] 99.6%

CC1CCNP(=O)(N(CCCl)CCCl)O1 (centres undefined)
inactive: [1] 94% | [2] 112% | [3] 122% | [4] 106% | [5] 110% | [6] 91% | [7] 97.4% | [8] 104% | [9] 99.9% | [10] 104% | [11] 109% | [12] 112% | [13] 108% | [14] 93.5% | [15] 125% | [16] 95% | [17] 98.5% | [18] 112% | [19] 65% | [20] 106%

Nc1ccccc1[As](=O)(O)c1ccccc1
inactive: [1] 100% | [2] 97.6% | [3] 111% | [4] 113% | [5] 106% | [6] 72.4% | [7] 57.4% | [8] 102% | [9] 107% | [10] 107% | [11] 111% | [12] 125% | [13] 95.8% | [14] 105% | [15] 100% | [16] 114% | [17] 105% | [18] 104% | [19] 89.9% | [20] 98.9%

CC(=O)Nc1ccc([As](=O)(O)O)cc1
inactive: [1] 102% | [2] 84.3% | [3] 99.9% | [4] 93.9% | [5] 113% | [6] 104% | [7] 92.5% | [8] 97.8% | [9] 110% | [10] 124% | [11] 122% | [12] 109% | [13] 97.5% | [14] 93% | [15] 109% | [16] 104% | [17] 97.6% | [18] 98.4% | [19] 96.8% | [20] 94.1%

O=P(Cl)(N1CCCCCC1)N1CCCCCC1
inactive: [1] 103% | [2] 99.5% | [3] 109% | [4] 108% | [5] 109% | [6] 105% | [7] 102% | [8] 95.7% | [9] 105% | [10] 113% | [11] 112% | [12] 103% | [13] 103% | [14] 106% | [15] 115% | [16] 101% | [17] 103% | [18] 93.5% | [19] 101% | [20] 103%

COc1cc([N+](=O)[O-])cc([N+](=O)[O-])c1
inactive: [1] 99.9% | [2] 113% | [3] 139% | [4] 109% | [5] 111% | [6] 130% | [7] 85% | [8] 100% | [9] 108% | [10] 113% | [11] 111% | [12] 106% | [13] 131% | [14] 88.3% | [15] 121% | [16] 98.5% | [17] 117% | [18] 106% | [19] 100%

CCOC(=O)NC(c1ccccc1[N+](=O)[O-])P(=O)(O)Nc1ncn[nH]1 (centres undefined)
inactive: [1] 98.2% | [2] 84.2% | [3] 106% | [4] 94.5% | [5] 116% | [6] 99.9% | [7] 97.5% | [8] 120% | [9] 113% | [10] 116% | [11] 108% | [12] 99.1% | [13] 104% | [14] 102% | [15] 117% | [16] 110% | [17] 101% | [18] 96.3% | [19] 113% | [20] 107%
